Measured values from ChEMBL document CHEMBL3612054 (Bioorg Med Chem, 2015).

By UniProt entry, the sequences of proteins in these tests, tags left out. Where a name states a change or a piece, a line headed by the entry shows the natural chain unless it says otherwise.
UniProt P41143, whole entry: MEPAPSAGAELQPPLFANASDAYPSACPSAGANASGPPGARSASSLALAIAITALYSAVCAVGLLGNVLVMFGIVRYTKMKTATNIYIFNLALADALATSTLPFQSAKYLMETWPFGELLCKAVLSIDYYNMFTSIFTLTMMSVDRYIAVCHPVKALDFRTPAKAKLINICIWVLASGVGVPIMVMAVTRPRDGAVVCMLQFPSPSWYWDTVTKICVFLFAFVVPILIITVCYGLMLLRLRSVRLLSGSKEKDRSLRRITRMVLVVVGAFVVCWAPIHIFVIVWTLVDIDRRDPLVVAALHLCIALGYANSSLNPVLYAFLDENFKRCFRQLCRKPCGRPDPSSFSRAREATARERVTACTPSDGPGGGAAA
UniProt P35372, whole entry: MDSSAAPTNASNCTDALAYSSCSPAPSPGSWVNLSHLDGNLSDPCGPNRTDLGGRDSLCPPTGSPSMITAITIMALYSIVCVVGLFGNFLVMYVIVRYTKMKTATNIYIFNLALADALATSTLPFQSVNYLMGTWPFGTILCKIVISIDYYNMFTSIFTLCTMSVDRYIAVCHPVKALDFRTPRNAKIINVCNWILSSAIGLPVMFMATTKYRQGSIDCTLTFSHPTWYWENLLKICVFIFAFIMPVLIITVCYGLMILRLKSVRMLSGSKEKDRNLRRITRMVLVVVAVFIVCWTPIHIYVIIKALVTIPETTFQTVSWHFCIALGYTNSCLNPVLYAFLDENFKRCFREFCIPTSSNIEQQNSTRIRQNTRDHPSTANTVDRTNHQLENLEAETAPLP
UniProt P41145: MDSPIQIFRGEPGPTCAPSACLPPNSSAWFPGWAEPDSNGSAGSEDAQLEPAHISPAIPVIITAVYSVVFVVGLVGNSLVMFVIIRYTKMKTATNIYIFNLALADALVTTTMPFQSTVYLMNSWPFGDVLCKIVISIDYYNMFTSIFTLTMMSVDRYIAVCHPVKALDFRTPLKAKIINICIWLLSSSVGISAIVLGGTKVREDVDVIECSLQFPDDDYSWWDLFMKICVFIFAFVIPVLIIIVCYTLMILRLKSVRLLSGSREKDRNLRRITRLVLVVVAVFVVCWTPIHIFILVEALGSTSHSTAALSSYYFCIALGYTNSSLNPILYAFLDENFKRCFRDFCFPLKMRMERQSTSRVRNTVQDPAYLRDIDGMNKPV

Key:
[1] = target: Delta-type opioid receptor (Homo sapiens) (UniProt P41143)
[2] = target: Mu-type opioid receptor (Homo sapiens) (UniProt P35372)
[3] = target: Kappa-type opioid receptor (Homo sapiens) (UniProt P41145)

| SMILES | Ke [1] | Ke [2] | Ke [3] |
| --- | --- | --- | --- |
| CC(C)[C@@H](CN1CCC(C)(c2cccc(F)c2)CC1)NC(=O)[C@H]1Cc2ccc(O)cc2CN1 | 1480 nM |  |  |
| CC(C)[C@@H](CN1CC[C@@](C)(c2ccccc2)[C@@H](C)C1)NC(=O)[C@H]1Cc2ccc(O)cc2CN1 | 442 nM | 8.9 nM | 0.024 nM |
| CC(C)[C@@H](CN1CCC(c2cccc(F)c2)CC1)NC(=O)[C@H]1Cc2ccc(O)cc2CN1 | 128 nM |  |  |
